# Binding of CDR-mutated scFvs to a peptide of the spike HR2 region

From the AlphaSeq antibody data of Li et al. 2023 (doi:10.1038/s41467-023-39022-2), copy in the FLAb collection.

All variants were tested on one target, the spike HR2 peptide PDVDLGDISGINAS (SARS-CoV-2).

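This is the validation round: designs drawn from the data on random variants, tested in the same kind of assay. Group labels follow the data file (Ctrl: baseline library sampled from a position-specific scoring matrix, with some repeated check sequences; En: ensemble of fine-tuned language models; GP: Gaussian process model; HC: hill climbing; Gen: genetic algorithm; Gibbs: Gibbs sampling; a sequence that several methods proposed may carry one label only). The scFvs were displayed on barcoded MATa yeast, the peptide on MATalpha yeast. Mating (16 h, 30 °C) was followed by selection of diploids and sequencing of their barcodes. Scores were corrected for input abundance and mapped to Kd with protein pairs of known affinity run in the same pool. Each pool was mated in six replicate cultures.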

Parent: Ab-14, a human scFv built as VH, a 15-residue (Gly4Ser)3 linker, VL. Only the CDRs of the light chain vary.
VH: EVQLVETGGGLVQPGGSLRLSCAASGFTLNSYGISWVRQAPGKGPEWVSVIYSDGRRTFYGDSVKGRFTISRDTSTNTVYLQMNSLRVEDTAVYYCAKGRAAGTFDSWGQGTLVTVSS
VL: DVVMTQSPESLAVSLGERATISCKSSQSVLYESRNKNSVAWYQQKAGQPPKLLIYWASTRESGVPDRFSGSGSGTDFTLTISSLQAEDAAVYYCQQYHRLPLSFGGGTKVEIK

The parent's light chain CDRs are KSSQSVLYESRNKNSVA, WASTRES, QQYHRLPLS; each variant's own CDRs replace them letter for letter.
Values are log10 of the apparent Kd in nM; lower means stronger binding.
Replicates are averaged; those with no signal do not enter the mean.
A pair that was not seen in any replicate is written "no signal"; this usually means weak binding, but a binder can also be missed.

CDR-L1	CDR-L2	CDR-L3	group	mean log10 Kd (nM)	seen in
LLSQQNLYEDRNKNSVA	NASQRLS	QQYHRLPLS	GP_Gibbs	0.04	6 of 6
KLSISVLYESSNSNSVA	WASTRES	QQKHRLPLS	Ctrl	2.64	2 of 6
VISMFELQGTGWAQNIA	QASHKVE	QQFSRLPLV	En_Gibbs	0.70	5 of 6
KISQVYLYESRNKNSVA	DASTRES	QQYHRLPLS	GP_HC	-0.18	6 of 6
KISQTNEMELKNRNSVA	ELVTRMS	QQYNRLPLS	En_Gen	0.84	6 of 6
HFSQETMEFMSQNKAIA	EVTTTMD	QQYARLPFI	En_Gibbs	1.05	6 of 6
KSSQSDLYESRNKNSVA	HASTRED	QQYHRLPLS	GP_HC	-0.18	6 of 6
KSSQSALGESRNKNSVA	AASTRES	QQYHRLPLS	Ctrl	0.35	6 of 6
KLDNWQLGESRNKNSVA	SASTRCS	QQYHRLPLS	GP_Gibbs	0.14	6 of 6
KLGQSVAMTSRNKNNVA	DLNVRER	QQYHRLPLS	En_HC	-0.21	6 of 6
KLSGSMLYEQRMKNSVA	QASQRMS	QDYHRLPLS	GP_Gibbs	0.48	6 of 6
KISQMFNVGTKNTNSLA	EMNTRGM	QDYHRLPLS	En_HC	1.58	6 of 6
ILYDSVGNLSRNKNSVA	DNSTRES	QQYDRLPLS	En_HC	2.85	1 of 6
HLSPSVLYESRNKNSVA	NASTRES	QQYHRLPFS	GP_HC	-0.29	6 of 6
KCSQSELFESRNKNSVA	DASTRES	QQYHRLPLS	GP_HC	-0.41	6 of 6
KLPQSMQYESRNKNNVA	SASCRES	QQYHRLPLS	GP_Gibbs	1.80	2 of 6
KSSQSVLYESRNKNSVA	WASTRES	QQYHRLPIA	Ctrl	no signal	0 of 6
IVSQLMIWGMHVKNSIA	EAELRLN	QQYDRLPLF	En_Gen	no signal	0 of 6
KIGLVTNGISFAKNSVA	EQSTREN	QQYDRLPLS	En_HC	1.05	6 of 6
KMSQSALMEPRNKNSVA	NASQRQM	QQYHRLPLS	GP_Gibbs	-0.07	6 of 6
MISQLYNMGSFAINSVA	QASQRNA	QQYDRLPLT	En_Gen	1.36	5 of 6
KLSQSVLFWGHAINSVA	EMETRES	QQYDRLPLS	En_HC	1.20	6 of 6
KMEQGDLYESRNKNSVA	GASVRES	QQYHRLPLS	GP_HC	-0.64	6 of 6
KLSQKVLSNSRNKNSVA	WASTRES	QQYHRLPES	Ctrl	no signal	0 of 6
KSSQSFLYESRNKNSIA	WASTRES	QQYHRLPLS	Ctrl	2.37	3 of 6
KSSQSVLYEVTNKNSVA	WASTRES	QQMHGLPLS	Ctrl	no signal	0 of 6
KLSQSHLYESRNSNNVA	EASYRMD	QQYHRLPLS	GP_Gibbs	-0.19	6 of 6
KSQASVLDESRNKNSVA	WASTRES	QQYHRLWLS	Ctrl	no signal	0 of 6
KLDNSTLYESRQKNSVA	WASTRES	QQYHRLPLS	GP_HC	1.11	6 of 6
SLAESVHMETRNKNSVA	DNSTRES	QHYHRLPLS	En_HC	no signal	0 of 6
KSSISVLYESHNKNSVA	NASTRMS	QQYHRLPLS	GP_HC	0.73	6 of 6
KSSQSVLYESDNKNSVA	WASTRES	QQYHRLPLD	Ctrl	2.74	4 of 6
MISQLYNMGSFAINSVA	QAQTRNE	QQYDRLPLT	En_Gen	2.71	1 of 6
KARQSNLYEDRNQNSVA	SASQRLD	QQYHRLPLS	GP_Gibbs	0.03	6 of 6
MISQLFNMGQFAINSVA	QASTRNE	QQYDRLPLI	En_Gen	1.64	6 of 6
QLMEEQSMRTEAQRSIA	QGEQKVH	QQYFRLPLA	En_Gibbs	0.62	6 of 6
MISQLMNMGQFAINSVA	QASIRCN	QQYDRLPLA	En_Gen	1.58	3 of 6
KVQQSWLYESRNINNVA	NASKRES	QQYHRLPLH	GP_Gibbs	0.38	6 of 6
SLADAVHMESRNKNSVA	DNSTRES	QHYHRLPLS	En_HC	1.88	6 of 6
KSSQSVLGESLYKNSVA	WASTRES	QQYHRLPLS	Ctrl	1.56	6 of 6
KLSPEEQYESRQKNSVA	NASLRES	QQYHRLPLS	GP_Gibbs	0.08	6 of 6
KQSQSVLGESRNKRSVA	EASTRES	QQYHRLPLS	Ctrl	0.15	6 of 6
KFSQSVLYESRQKNSVA	NASQRES	QQYHRLPLS	GP_Gen	0.19	6 of 6
KLDQWVEYGSRNKNSVA	SASQRFS	QQYHRLPLS	GP_Gibbs	0.54	6 of 6
NLQNIGSELSVWKRAIA	DVNIRES	QQYFRLPLL	En_Gibbs	-0.09	6 of 6
KSSQSVMYESRNKNSCA	WASTRES	QCYHDLPLS	Ctrl	no signal	0 of 6
KLPQSTLYESRQKNSVA	WASTRES	QQYHRLPLS	GP_HC	0.14	6 of 6
KDSQSVLYESRNKNSVA	WASTRES	QQYARLPLS	Ctrl	1.00	3 of 6
KSPQSVLYESRNKNSVA	WASTREL	QQYHRLPNS	Ctrl	no signal	0 of 6
KVDQLGDMESRNKNAVA	SASTRES	QQYHRLPLS	GP_Gibbs	-0.25	6 of 6
MISQIYNMGSFAINSVA	QASLRNQ	QQYDRLPLM	En_Gen	1.03	6 of 6
MISQVMNTLSRQGNNVA	DLAERED	QQYFRLPLS	En_Gen	1.71	5 of 6
MISQVMNTLTREGNNVA	DLAEREK	QQYFRLPLS	En_Gen	0.69	6 of 6
KLTMITGLEKVSKNNVA	EMETRLQ	QQYNRLPLS	En_Gen	0.44	6 of 6
MISNVMNTLTREGNNVA	DLEERER	QQYFRLPLS	En_Gen	1.55	6 of 6
KSSQSVLYEFRMKNSVA	WASTRES	QQYRRLPLS	Ctrl	no signal	0 of 6
KISMSVTFENRNKNSVA	ENSTRES	QSYHRLPLS	En_HC	1.85	1 of 6
KLSQSVLYESRNKMSVA	DASTRES	QQYHRLPLS	GP_Gen	0.22	6 of 6
KSSISGLYESAMKNSVA	EASTRES	QQYHRLPLS	GP_HC	0.17	6 of 6
KVSEFMKGLMSRQDSIA	DNNTRGE	QQYDRLPLS	En_Gen	1.83	6 of 6
TISMITSSFTQNINNVA	EVSTRCN	QQYDRLPLS	En_Gen	1.17	6 of 6
KSSISYLYESGNHNSVA	EASTREQ	QQYHRLPLS	GP_HC	0.34	6 of 6
KSSQSVKFESRNKNSVA	DASTREM	QQYHRLPLS	GP_HC	1.39	6 of 6
HIDWYNRGETLKKDDIA	NATHREQ	QQYFHLPLV	En_Gibbs	0.62	6 of 6
KFSQWVLYESRTQNSVA	NASTRES	QQYHRLPLS	GP_HC	0.10	6 of 6
KVSWEDLLWSRNWNQVA	EASTRES	QQYHRLPLS	GP_Gibbs	1.03	6 of 6

Picked from the list: the 8 lowest averages where every replicate gave a value.

| CDR-L1 | CDR-L2 | CDR-L3 | group | mean log10 Kd (nM) | seen in |
|---|---|---|---|---|---|
| KMEQGDLYESRNKNSVA | GASVRES | QQYHRLPLS | GP_HC | -0.64 | 6 of 6 |
| KCSQSELFESRNKNSVA | DASTRES | QQYHRLPLS | GP_HC | -0.41 | 6 of 6 |
| HLSPSVLYESRNKNSVA | NASTRES | QQYHRLPFS | GP_HC | -0.29 | 6 of 6 |
| KVDQLGDMESRNKNAVA | SASTRES | QQYHRLPLS | GP_Gibbs | -0.25 | 6 of 6 |
| KLGQSVAMTSRNKNNVA | DLNVRER | QQYHRLPLS | En_HC | -0.21 | 6 of 6 |
| KLSQSHLYESRNSNNVA | EASYRMD | QQYHRLPLS | GP_Gibbs | -0.19 | 6 of 6 |
| KSSQSDLYESRNKNSVA | HASTRED | QQYHRLPLS | GP_HC | -0.18 | 6 of 6 |
| KISQVYLYESRNKNSVA | DASTRES | QQYHRLPLS | GP_HC | -0.18 | 6 of 6 |

The authors averaged sequences with at least three values out of six and counted those with two or fewer as poor binders.
The parent sequence was in this pool as ten entries: three were never detected, three once, and four in most replicates, with averages from 0.34 to 2.37.
Three control strains display no target. For all light chain designs, 4% of the pairings with them gave a signal, with a median of 2.64 and one signal in twenty below 1.59, so weak values seen in few replicates may be background.
The range of this assay differs from that of the first round, and the authors advise against merging the two.